Source: PMC11154727, “Systematic Studies on the Anti-SARS-CoV-2 Mechanisms of Tea Polyphenol-Related Natural Products” (ACS Omega, 2024)

Tested on: SARS-CoV-2 Delta virus (NTU92)
Format: cell-based

SMILES: O=c1c(O)cc([C@H]2Oc3cc(O)cc(O)c3C[C@H]2O)cc2c([C@H]3Oc4cc(O)cc(O)c4C[C@H]3O)cc(O)c(O)c12 [theaflavin]
- selectivity index: 9.0
